The structures appear in SMILES notation. Only a part is listed here, and it is no random draw. Activity calls are given as the source filed them.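 The calls were made as follows: active = mean Tm shift, scaled 0 neutral to 100 positive control, at about 1.3% or above, every replicate too (limit read from the data); inconclusive = no clear call, values can overlap the other calls; inactive = the rest.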

Protein sequences, listed by entry. Tags and fused reporters are not part of them. Lines headed by an entry give the natural chain unless they say otherwise; changes in a name come on top.
UniProt Q9HCT0: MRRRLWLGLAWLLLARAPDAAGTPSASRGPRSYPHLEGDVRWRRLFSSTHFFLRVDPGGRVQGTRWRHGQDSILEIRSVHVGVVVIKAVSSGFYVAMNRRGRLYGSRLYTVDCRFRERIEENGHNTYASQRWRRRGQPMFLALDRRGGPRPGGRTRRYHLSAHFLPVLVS

Among the data in PubChem BioAssay AID651658 (Broad Institute, 2012) are activity (Tm shift, normalised) values, retold here.

For the assay, the target named is Fibroblast growth factor 22 (Homo sapiens) (UniProt Q9HCT0). Briefly: FGF22 ligand-induced thermal stabilization – biophysical, thermal shift, single point, FGF22 synaptogenesis inhibitor project, primary screen (AID 651658). Conditions: recombinant FGF22 thermal shift, SYPRO orange fluorescence; at 9.99 µM; active compounds read high; percent of sucrose octasulfate shift, DMSO zero.
Consider `COc1ccc(N)c([N+](=O)[O-])c1[N+](=O)[O-]`, for which the activity (Tm shift, normalised) was active: 43.2%.

Take `Nc1ccc(CCCCOc2ccccc2)cc1`: the activity (Tm shift, normalised) is active: 1.64%.

Consider `O=c1c2cc([N+](=O)[O-])ccc2[nH]c2c([N+](=O)[O-])cc([N+](=O)[O-])cc12`, for which the activity (Tm shift, normalised) is active: 43.1%.

For `COP(=O)(OC)N1CC1c1ccccc1` (stereo not given), the activity (Tm shift, normalised) is active: 43.7%.

Regarding `Cc1ccc(S(=O)(=O)N(CCCN)CCCc2c(C)nc(N)[nH]c2=O)cc1`, the activity (Tm shift, normalised) is active: 2.19%.
